The values that follow are results of earlier work, collected in US11583515B2, “Composition and method for rapidly inducing an endogenous ketosis” (priority 2015, dated 2023).

The conditions of the data set: endogenously synthesized.

For insulin, the bioactive half-life is 5 to 10 min.
